Experimental data as given in publication PMC4208661, “SGLT2 inhibitors act from the extracellular surface of the cell membrane” (Physiological Reports, 2014).

Biological target: T1, hSGLT2 (Homo sapiens, UniProt P31639)
T1 sequence (P31639 1-672): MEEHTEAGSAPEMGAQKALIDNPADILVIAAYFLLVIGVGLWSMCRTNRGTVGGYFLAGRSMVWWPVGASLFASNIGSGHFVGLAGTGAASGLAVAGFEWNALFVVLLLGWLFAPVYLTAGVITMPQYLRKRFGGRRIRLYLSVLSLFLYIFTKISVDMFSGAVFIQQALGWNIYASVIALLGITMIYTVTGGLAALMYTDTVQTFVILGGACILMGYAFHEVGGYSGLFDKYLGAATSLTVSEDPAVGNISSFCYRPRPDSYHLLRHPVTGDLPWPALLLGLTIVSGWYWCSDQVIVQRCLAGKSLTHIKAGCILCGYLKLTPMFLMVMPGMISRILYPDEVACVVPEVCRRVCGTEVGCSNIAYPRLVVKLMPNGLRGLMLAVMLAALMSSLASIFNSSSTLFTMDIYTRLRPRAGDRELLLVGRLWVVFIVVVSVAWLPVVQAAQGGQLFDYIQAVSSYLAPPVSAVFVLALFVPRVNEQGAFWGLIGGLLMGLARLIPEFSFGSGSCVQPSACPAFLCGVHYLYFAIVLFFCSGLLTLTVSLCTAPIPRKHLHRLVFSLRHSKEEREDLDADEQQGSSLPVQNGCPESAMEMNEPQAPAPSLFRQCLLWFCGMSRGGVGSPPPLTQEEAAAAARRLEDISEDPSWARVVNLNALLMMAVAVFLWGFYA
Assay: Whole-cell patch clamp, inward glucose current with inhibitor in the intracellular (pipette) solution, hSGLT2
Format: cell-based
Design: transfected with 1 μg of the vector containing the hSGLT2 or hSGLT1 coding region; expressed in transfected cells; host or cells: HEK-293T
From the text: Phlorizin was used as a control. […] The intracellular NaCl concentration was maintained at either 5 or 150 mmol/L using CsCl to replace NaCl (Fig. 5A and B).

O=C(CCc1ccc(O)cc1)c1c(O)cc(O)cc1O[C@@H]1O[C@H](CO)[C@@H](O)[C@H](O)[C@H]1O [phlorizin]
inhibition of inward hSGLT2 glucose current (10 μmol/L phlorizin intracellular, 150 mmol/L intracellular Na+): no significant inhibition
decrease in hSGLT2 glucose-induced current (200 μmol/L phlorizin intracellular, 150 mmol/L intracellular Na+): 85%
inhibition of inward hSGLT2 Na+/glucose current (10–200 μmol/L phlorizin intracellular, 5 mmol/L intracellular Na+): did not inhibit
